Tests used:
[1] = biological target: T1, Peroxisome proliferator-activated receptor alpha (Homo sapiens) (UniProt Q07869); experiment: Potency index, ratio of EC50 of GFT505 to ratio of EC50 of compound for agonist activity at PPARalpha (unknown origin) incubated for 3 to 16 hrs by pathhunter nuclear hormone receptor assay
T1 sequence (whole entry): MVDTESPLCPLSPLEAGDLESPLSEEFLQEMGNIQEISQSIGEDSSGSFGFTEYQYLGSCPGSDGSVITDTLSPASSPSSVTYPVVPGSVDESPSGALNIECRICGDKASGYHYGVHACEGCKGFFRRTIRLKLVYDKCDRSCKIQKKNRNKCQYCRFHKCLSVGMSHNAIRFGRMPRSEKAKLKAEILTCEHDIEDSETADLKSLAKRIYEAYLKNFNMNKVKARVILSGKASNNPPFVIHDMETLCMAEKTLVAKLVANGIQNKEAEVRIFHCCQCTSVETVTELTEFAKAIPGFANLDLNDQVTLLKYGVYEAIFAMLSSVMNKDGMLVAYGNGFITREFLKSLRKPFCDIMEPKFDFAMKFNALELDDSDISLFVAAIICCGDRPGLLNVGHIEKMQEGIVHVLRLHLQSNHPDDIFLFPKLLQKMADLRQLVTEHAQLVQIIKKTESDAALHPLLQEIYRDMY

Protein sequences, listed by entry. Tags and fused reporters are not part of them. Lines headed by an entry give the natural chain unless they say otherwise; changes in a name come on top.
UniProt P37231: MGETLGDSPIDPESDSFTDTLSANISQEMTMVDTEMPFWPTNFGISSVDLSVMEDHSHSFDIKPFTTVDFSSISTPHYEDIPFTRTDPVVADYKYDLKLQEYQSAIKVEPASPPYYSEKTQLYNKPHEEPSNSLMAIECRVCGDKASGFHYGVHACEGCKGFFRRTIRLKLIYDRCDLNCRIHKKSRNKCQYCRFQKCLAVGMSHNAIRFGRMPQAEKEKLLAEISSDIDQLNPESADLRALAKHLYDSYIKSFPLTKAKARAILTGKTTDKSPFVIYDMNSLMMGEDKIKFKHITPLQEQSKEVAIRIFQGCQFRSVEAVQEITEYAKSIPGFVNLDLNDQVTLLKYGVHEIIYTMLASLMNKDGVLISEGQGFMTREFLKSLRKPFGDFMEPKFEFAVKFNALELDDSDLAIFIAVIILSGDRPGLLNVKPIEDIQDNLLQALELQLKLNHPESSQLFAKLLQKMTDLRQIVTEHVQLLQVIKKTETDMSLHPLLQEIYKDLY
UniProt Q03181: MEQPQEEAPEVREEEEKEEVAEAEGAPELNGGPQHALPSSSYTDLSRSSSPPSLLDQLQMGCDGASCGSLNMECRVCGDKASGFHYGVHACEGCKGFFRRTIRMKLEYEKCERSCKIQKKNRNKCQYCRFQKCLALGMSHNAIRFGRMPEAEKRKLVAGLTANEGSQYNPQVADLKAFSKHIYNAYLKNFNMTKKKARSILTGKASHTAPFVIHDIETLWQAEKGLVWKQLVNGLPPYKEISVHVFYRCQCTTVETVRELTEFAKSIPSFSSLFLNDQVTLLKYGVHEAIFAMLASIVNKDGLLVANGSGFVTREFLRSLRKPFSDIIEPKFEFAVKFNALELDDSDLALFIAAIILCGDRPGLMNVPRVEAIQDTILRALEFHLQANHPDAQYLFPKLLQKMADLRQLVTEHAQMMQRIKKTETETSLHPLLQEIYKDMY

Homo sapiens = species: Homo sapiens; experiment: Selectivity index, ratio of EC50 of PPARgamma (unknown origin) to EC50 of PPARalpha (unknown origin)
[2] = biological target: PPAR delta/gamma (Homo sapiens) (UniProt P37231+Q03181); experiment: Selectivity index, ratio of EC50 of PPARgamma (unknown origin) to EC50 of PPARdelta (unknown origin); assay type: protein assay

Cc1cc(Cc2cc(-c3ccc(Br)cc3)on2)cc(C)c1OC(C)(C)C(=O)O gave a Ratio EC50 [1] of 8 to 28, a Ratio EC50 (Homo sapiens) of 367 and a Ratio EC50 [2] of 588.
